System: TRIM33 PHD finger
Experiment: ITC binding to PHD finger
Details: histone H3(1-15)

With “histone H3(1-15) containing unmodified lysine 4 and trimethylated lysine 9: histone H3(1-15) containing unmodified lysine 4 and trimethylated lysine 9” the binding preference was “prefers to bind”.

— publication PMC3582033 (Cell, 2011)
